Measured values: article PMC9495587, “Neuroprotective Effects of the Lithium Salt of a Novel JNK Inhibitor in an Animal Model of Cerebral Ischemia–Reperfusion” (Biomedicines, 2022)

Chains of the proteins cited; added tags and fusions are not shown. Lines headed by an entry give the natural chain unless they say otherwise; changes in a name come on top.
UniProt P53779: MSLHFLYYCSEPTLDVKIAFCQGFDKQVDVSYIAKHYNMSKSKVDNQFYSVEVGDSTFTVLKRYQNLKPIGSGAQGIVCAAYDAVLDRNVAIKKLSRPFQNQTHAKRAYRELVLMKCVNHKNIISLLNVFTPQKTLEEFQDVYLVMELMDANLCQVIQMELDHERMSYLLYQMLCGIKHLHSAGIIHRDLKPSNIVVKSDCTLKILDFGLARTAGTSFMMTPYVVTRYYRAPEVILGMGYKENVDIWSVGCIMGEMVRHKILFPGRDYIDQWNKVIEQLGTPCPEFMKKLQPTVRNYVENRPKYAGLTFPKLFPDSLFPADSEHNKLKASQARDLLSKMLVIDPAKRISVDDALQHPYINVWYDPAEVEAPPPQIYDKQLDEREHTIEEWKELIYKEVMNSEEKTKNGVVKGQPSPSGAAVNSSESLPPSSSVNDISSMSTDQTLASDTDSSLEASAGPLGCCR
UniProt P45984: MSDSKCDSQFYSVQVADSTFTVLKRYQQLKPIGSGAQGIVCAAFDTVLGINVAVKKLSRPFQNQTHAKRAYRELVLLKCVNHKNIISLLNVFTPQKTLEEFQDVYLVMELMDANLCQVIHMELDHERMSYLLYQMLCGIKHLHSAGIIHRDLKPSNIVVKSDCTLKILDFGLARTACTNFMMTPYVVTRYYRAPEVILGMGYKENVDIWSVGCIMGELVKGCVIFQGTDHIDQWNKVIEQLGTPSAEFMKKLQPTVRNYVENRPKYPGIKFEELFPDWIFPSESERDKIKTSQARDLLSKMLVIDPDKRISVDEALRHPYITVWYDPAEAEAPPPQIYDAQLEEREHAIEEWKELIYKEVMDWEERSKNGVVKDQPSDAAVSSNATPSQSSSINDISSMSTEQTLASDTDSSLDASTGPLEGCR
UniProt P45983: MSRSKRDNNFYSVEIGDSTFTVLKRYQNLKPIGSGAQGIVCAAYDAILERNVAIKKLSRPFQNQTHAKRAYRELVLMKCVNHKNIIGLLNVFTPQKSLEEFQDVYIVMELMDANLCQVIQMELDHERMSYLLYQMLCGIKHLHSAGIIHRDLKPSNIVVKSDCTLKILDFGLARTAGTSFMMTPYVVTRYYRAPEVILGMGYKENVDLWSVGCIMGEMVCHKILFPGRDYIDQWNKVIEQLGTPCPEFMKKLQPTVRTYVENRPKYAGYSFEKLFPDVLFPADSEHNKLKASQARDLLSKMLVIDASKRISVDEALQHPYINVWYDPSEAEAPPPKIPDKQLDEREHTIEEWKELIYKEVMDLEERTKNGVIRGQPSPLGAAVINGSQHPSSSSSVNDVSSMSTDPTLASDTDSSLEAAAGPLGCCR

Key:
Experiment in all cases: KINOMEscan competition binding assay (Kd, 12-point dilution series)
JNK3 = target: T1, JNK3 (Homo sapiens, UniProt P53779)
T1 construct: gene MAPK10

JNK2 = target: T2, JNK2 (Homo sapiens, UniProt P45984)
T2 construct: gene MAPK9

JNK1 = target: T3, JNK1 (Homo sapiens, UniProt P45983)
T3 construct: gene MAPK8

**Q.** With `ON=C1c2ccccc2-c2nc3ccccc3nc21` [IQ-1L, lithium salt of oxime 11H-indeno[1,2-b]quinoxaline-11-one] as the compound, how does the Kd (JNK3) read?
**A.** The Kd was 55 ± 10 nM.

**Q.** What about the Kd (JNK2) of the same compound?
**A.** The Kd was 150 ± 40 nM.

**Q.** What about the Kd (JNK1) of the same compound?
**A.** Its Kd is 140 ± 10 nM.

Counter-ions that a name gives are not always drawn.
